A short description of data set [1]: Gut parameters (Qgut, fugut), simulation input. Also on record: species or system human. The settings on record: Optimised to recover observed FG (Kharasch and Stubbert, 2013 and others).
Another data set has as its system CYP3A4. The settings on record: cited from earlier work; for AUC: before rifampicin, mean (CV).
The conditions of data set [2]: ref Meta-analysis (Meuldermans et al., 1982); (Bower and Hull, 1982) and 5 others; cited from earlier work.
The conditions of data set [3]: ref (Meuldermans et al., 1982) (Beaumont et al., 2011); cited from earlier work.
For data set [4] the following is noted: ref (Mather, 1983); cited from earlier work.
The conditions of data set [5]: Monoprotic Base; ref (Meuldermans et al., 1982); (Mather, 1983); cited from earlier work.
For data set [6] the following is noted: ref Meta-analysis (Bower and Hull, 1982); (Bentley et al., 1983) and others; cited from earlier work.
For data set [7] the following is noted: cited from earlier work.

SMILES strings stand for the structures. Where two headings read alike, the source gives them in different places. Some compounds may have been tested in ways that are not shown here.

In general, fraction unbound refers to free concentration divided by total concentration. Usually logP stands for the decadic logarithm of the partition coefficient of the neutral form, usually between octanol and water. For the molecule `CCC(=O)N(c1ccccc1)C1(COC)CCN(CCn2nnn(CC)c2=O)CC1`, the Qgut in data set [1] was 2.2 L/h. The AUC is listed as 111 (52.1) ng/mL.h in the data set with CYP3A4 (ALF 0.015 mg/kg i.v., n=6, ref Phimmasone and Kharasch, 2001); 64.8 (41.0) ng/mL.h with CYP3A4 (ALF 0.015 mg/kg i.v., n=10, ref Kharasch et al., 2004); 103 (29.1) ng/mL.h in the data set on CYP3A4 (ALF 0.06 mg/kg oral, n=10, ref Kharasch et al., 2004); 59.0 (45.8) ng/mL.h in the data set with CYP3A4 (ALF 1 mg i.v., n=6, ref Kharasch et al., 2011); 108 (63.0) ng/mL.h with CYP3A4 (ALF 4 mg oral, n=6, ref Kharasch et al., 2011). Moreover, the “1/AUC Ratio” value is 2.67 in the data set on CYP3A4 (ALF 0.015 mg/kg i.v., rifampicin 600 mg daily for 5 days, ref Kharasch et al., 2004); 2.31 in the data set with CYP3A4 (ALF 0.015 mg/kg i.v., rifampicin 600 mg daily for 5 days, ref Phimmasone and Kharasch, 2001); 21.9 with CYP3A4 (ALF 0.06 mg/kg oral, rifampicin 600 mg daily for 6 days, ref Kharasch et al., 2004); 2.81 in the data set on CYP3A4 (ALF 1 mg i.v., rifampicin 600 mg daily for 6 days, ref Kharasch et al., 2011); 16.9 in the data set with CYP3A4 (ALF 4 mg oral, rifampicin 600 mg daily for 5 days, ref Kharasch et al., 2011). For the same molecule, the fraction unbound in data set [2] is 0.12. In data set [3], the “B:P” value is given as 0.66. Besides, in data set [4], the logP was 2.16. Besides, in data set [5], the pKa(s) was 6.5. Moreover, in data set [6], the Vss - observed is recorded as 0.371 L/kg. The CLiv in data set [7] (ref Meta-analysis (Bovill et al., 1982), (Bower and Hull, 1982) and others) is 19.9 L/h. The CLR in data set [7] (ref Meta-analysis (Meuldermans et al., 1988), (Schuttler and Stoeckel, 1982)) is 0.06 L/h.

These data come from article PMC4885489, “Prediction of Drug-Drug Interactions Arising from CYP3A induction Using a Physiologically Based Dynamic Model” (Drug Metabolism and Disposition, 2016).
